{"source": "PubChem BioAssay AID652104", "about": "(National Center for Advancing Translational Sciences (NCATS), 2013)", "note": "The entries are a selection whose mix differs from that of the whole data set. Inconclusive results are not listed. Entries that show only a call come without a potency. Calls of active or inactive are those of the source. The call rests on the fitted dose curve; in most records, active means well fitted activation curve with a large enough effect; inconclusive means small, poorly fitted or top-dose-only effect, or another doubt; inactive means no such curve, though single readings can be large or run the other way. Potency means the concentration at half of the fitted maximal effect."}
{"experiment": "qHTS of TDP-43 Inhibitors; further: nearly all actives have a fitted effect of over 50% in size", "settings": "TDP-43 expressing yeast growth rescue, BacTiter-Glo, 24 h; series mostly up to 46.1 µM"}
{"smiles": "CC1(CBr)Cn2c(nc3ccccc3c2=O)S1", "note": "(stereo unspecified)", "growth rescue (activation)": "inactive"}
{"smiles": "CCC1=CC2Cc3nc4ccc(Cl)cc4c(N)c3C(C1)C2", "note": "(stereo unspecified)", "growth rescue (activation)": "inactive"}
{"smiles": "O=P1(Nc2ccccn2)COc2ccccc2OC1", "growth rescue (activation)": "inactive"}
{"smiles": "CCOP(=O)(NC(=NC(C)c1ccccc1)NC(C)c1ccccc1)OCC", "note": "(stereo unspecified)", "growth rescue (activation)": "inactive"}
{"smiles": "CN(CCCl)Cc1cc(Cl)c(NC2=NCCN2)c(Cl)c1", "growth rescue (activation)": "inactive"}
{"smiles": "CCOP(=O)(Nc1ccc(C)cn1)OCC", "growth rescue (activation)": "inactive"}
{"smiles": "Clc1n[nH]nc1-c1nn[nH][15n]1", "growth rescue (activation)": "inactive"}
{"smiles": "O=P1(N(CCCl)CCCl)NCCC(C(F)(F)F)O1", "note": "(stereo unspecified)", "growth rescue (activation)": "inactive"}
{"smiles": "CC(C)(C)C(=O)NC(Sc1ncccn1)C(Cl)(Cl)Cl", "note": "(stereo unspecified)", "growth rescue (activation)": "inactive"}
{"smiles": "O=C(OC1CN2CCC1CC2)c1cccc([N+](=O)[O-])c1", "note": "(stereo unspecified)", "growth rescue (activation)": "inactive"}
{"smiles": "CCOC(=O)c1ccc(NC(=O)C(C)(CCl)SC)cc1", "note": "(stereo unspecified)", "growth rescue (activation)": "inactive"}
{"smiles": "CCC(C)N(CC(C)C)C(=S)SC(NC(C)=O)C(Cl)(Cl)Cl", "note": "(stereo unspecified)", "growth rescue (activation)": "inactive"}
{"smiles": "COP1(=S)c2c(C)nn(CCC#N)c2N=C(c2ccc(F)cc2)N1C", "note": "(stereo unspecified)", "growth rescue (activation)": "inactive"}
{"smiles": "COC(=O)C1(C)COP(=O)(N2CCCC2)OC1", "note": "(stereo unspecified)", "growth rescue (activation)": "inactive"}
{"smiles": "O=C(O)C(=O)c1ccc(N(CCCl)CCCl)cc1", "growth rescue (activation)": "inactive"}
{"smiles": "O=C(COc1ccccc1)OC1CN2CCC1CC2", "note": "(stereo unspecified)", "growth rescue (activation)": "inactive"}
{"smiles": "CCOC(=O)Nc1cccc([As](=O)(O)O)c1", "growth rescue (activation)": "inactive"}
{"smiles": "Cc1cc(SC(NC=O)C(Cl)(Cl)Cl)ncn1", "note": "(stereo unspecified)", "growth rescue (activation)": "inactive"}
{"smiles": "O=P(Nc1ccccn1)(c1cccc2ccccc12)c1cccc2ccccc12", "growth rescue (activation)": "inactive"}
{"smiles": "O=[N+]([O-])c1ccc(Nc2ccc(Oc3ccc([N+](=O)[O-])cc3[N+](=O)[O-])cc2)c([N+](=O)[O-])c1", "growth rescue (activation)": "inactive"}
{"smiles": "O=C(O)C(O)c1ccc(N(CCCl)CCCl)cc1", "note": "(stereo unspecified)", "growth rescue (activation)": "inactive"}
{"smiles": "CCOC(=O)Nc1ccc([As](=O)(O)O)c(O)c1", "growth rescue (activation)": "inactive"}
{"smiles": "CC1CCNP(=O)(N(CCCl)CCCl)O1", "note": "(stereo unspecified)", "growth rescue (activation)": "inactive"}
{"smiles": "COP(=O)(OC)N1CC1c1ccccc1", "note": "(stereo unspecified)", "growth rescue (activation)": "inactive"}
{"smiles": "CCCCOc1ccc(C(=O)NCC2(N3CCCCC3)CCCCC2)cc1OC", "growth rescue (activation)": "inactive"}
{"smiles": "ClCCSc1nnc(-c2cccnc2)o1", "growth rescue (activation)": "inactive"}
{"smiles": "CC(C)c1ccc(OP(=O)(Nc2ccccn2)Oc2ccccc2F)cc1", "note": "(stereo unspecified)", "growth rescue (activation)": "inactive"}
{"smiles": "COC(=O)C1(C)COP(=O)(N2CCCCCC2)OC1", "note": "(stereo unspecified)", "growth rescue (activation)": "inactive"}
{"smiles": "O=C(OC1CN2CCC1CC2)c1cccc2[nH]cnc12", "note": "(stereo unspecified)", "growth rescue (activation)": "inactive"}
{"smiles": "CCN(CC)C(=S)SC(NC=O)C(Cl)(Cl)Cl", "note": "(stereo unspecified)", "growth rescue (activation)": "inactive"}
{"smiles": "CC(C)NC(=O)NP(=O)(Oc1ccccc1)Oc1ccccc1", "growth rescue (activation)": "inactive"}
{"smiles": "O=[N+]([O-])c1cc([N+](=O)[O-])c(-c2ccn[nH]2)s1", "Potency": "active: 15.8 µM"}
{"smiles": "C[As](=O)(O)c1cccc(C(=O)O)c1", "growth rescue (activation)": "inactive"}
{"smiles": "O=[As](O)(c1ccc(O)cc1)c1ccccc1O", "growth rescue (activation)": "inactive"}
{"smiles": "COc1cc(C(=O)NCC2(N3CCOCC3)CCCCC2)ccc1OCC(C)C", "growth rescue (activation)": "inactive"}
{"smiles": "O=[N+]([O-])c1ccc(-c2cc([N+](=O)[O-])c(O)c([N+](=O)[O-])c2)cc1", "growth rescue (activation)": "inactive"}
{"smiles": "Cc1ccc(OP(=O)(Nc2ccc([N+](=O)[O-])cn2)Oc2ccc(C)cc2)cc1", "growth rescue (activation)": "inactive"}
{"smiles": "Cc1ccc2nc3c(c(C)c2c1)CC(C(Cl)Cl)S3", "note": "(stereo unspecified)", "growth rescue (activation)": "inactive"}
{"smiles": "O=[N+]([O-])c1cc(Oc2ccc([N+](=O)[O-])cc2C(F)(F)F)cc([N+](=O)[O-])c1", "Potency": "active: 12.6 µM"}
{"smiles": "COc1ccc(N/C(=N/P(=O)(N2CCOCC2)N2CCOCC2)N2CCOCC2)cc1", "growth rescue (activation)": "inactive"}
{"smiles": "O=C(OC1CN2CCC1CC2)C12CC3CC(CC(C3)C1)C2", "note": "(stereo unspecified)", "growth rescue (activation)": "inactive"}
{"smiles": "Cc1cc(=O)[nH]c(N[N+](=O)[O-])n1", "growth rescue (activation)": "inactive: -3.99% [at 0.397 µM]"}
{"smiles": "O=P1(N(CCCl)CCCl)OCCCN1CCCl", "note": "(stereo unspecified)", "growth rescue (activation)": "inactive"}
{"smiles": "O=P1(N(CCCl)CCCl)Nc2ccccc2N1", "growth rescue (activation)": "inactive"}
{"smiles": "COc1ccc2nc(NP(=O)(c3ccccc3)c3ccccc3)sc2c1", "growth rescue (activation)": "inactive"}
{"smiles": "COc1cc(I)ccc1[As](=O)(O)O", "growth rescue (activation)": "inactive"}
